# Data reported in ChEMBL document CHEMBL5715956, “Selective Targeting of Bromodomains of the Bromodomain-PHD Fingers Family Impairs Osteoclast Differentiation” (ACS Chem Biol, 2017).
# Sequences of proteins named here, by UniProt entry; tags and fusion partners are left off.
# UniProt P21452, whole entry: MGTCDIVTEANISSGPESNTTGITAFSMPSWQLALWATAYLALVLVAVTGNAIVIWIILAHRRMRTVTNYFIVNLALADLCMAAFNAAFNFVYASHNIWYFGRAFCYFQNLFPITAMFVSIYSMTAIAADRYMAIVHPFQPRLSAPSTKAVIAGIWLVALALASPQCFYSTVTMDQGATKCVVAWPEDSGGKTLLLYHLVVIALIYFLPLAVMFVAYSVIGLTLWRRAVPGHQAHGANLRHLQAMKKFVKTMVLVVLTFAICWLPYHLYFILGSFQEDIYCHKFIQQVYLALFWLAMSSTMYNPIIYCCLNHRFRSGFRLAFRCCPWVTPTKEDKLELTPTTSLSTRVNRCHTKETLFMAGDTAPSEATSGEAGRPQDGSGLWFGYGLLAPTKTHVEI
# What was measured:
# [1] = molecular target: T1, Substance-K receptor (Homo sapiens, UniProt P21452); assay: Inhibition of NK2 receptor (unknown origin)
# [2] = molecular target: T1, Substance-K receptor; assay: Binding affinity to NK2 receptor (unknown origin) assessed as inhibition constant
smiles,measurement,setting,value
CCCC[C@H](NC(=O)[C@H](CC(C)C)NC(=O)CNC(=O)[C@@H](NC(=O)[C@H](Cc1ccccc1)NC(=O)[C@H](CO)NC(=O)[C@@H](N)CC(=O)O)C(C)C)C(N)=O,IC50,[1],10 nM
same,Ki,[2],5.6 nM
